Protein sequences, listed by entry. Tags and fused reporters are not part of them. Residues count along the entry.
UniProt G1TEI7, 1-342: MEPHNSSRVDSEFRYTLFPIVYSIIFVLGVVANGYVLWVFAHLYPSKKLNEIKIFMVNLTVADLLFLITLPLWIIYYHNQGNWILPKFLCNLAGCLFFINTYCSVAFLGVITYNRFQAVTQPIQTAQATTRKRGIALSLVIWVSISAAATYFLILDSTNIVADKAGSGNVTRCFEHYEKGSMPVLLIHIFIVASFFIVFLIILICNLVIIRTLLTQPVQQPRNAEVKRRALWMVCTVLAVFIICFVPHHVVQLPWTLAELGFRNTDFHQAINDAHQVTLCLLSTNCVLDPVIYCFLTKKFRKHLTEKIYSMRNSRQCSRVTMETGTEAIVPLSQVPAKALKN

According to PMC10084252, “PAF‐induced inflammatory and immuno‐allergic ophthalmic diseases and their mitigation with PAF receptor antagonists: Cell and nuclear effects” (Biofactors (Oxford, England), 2022):

Target: PAF receptor (Oryctolagus cuniculus, UniProt G1TEI7)
Assay: [3H]‐PAF receptor binding to rabbit platelet membranes
Conditions: read-out: [3H]‐PAF receptor binding inhibition constant (Ki, nM; Mean ± SEM)
From the text: FIGURE 5 Pharmacological profile of PAR receptor binding to platelet membranes. Figure 5A depicts the concentration‐dependent inhibition by unlabeled PAF receptor antagonists of different affinities for [^3H]‐PAF binding to rabbit platelet membranes in vitro. Figure 5B illustrates the correlation between the pharmacological profile of PAF receptor antagonists competing for [^3H]‐PAF binding to rabbit and human platelet membranes.

Row | SMILES | Ki
1 | CCCCCCCCCCCCCCCCCCNC(=O)OC1CCN(C(=O)OC[C@H](COC(=O)N(Cc2cccc[n+]2CC)C(=O)c2ccccc2OC)OC)CC1 | 9.5 nM
2 | Cc1nnc2n1-c1sc(C#CCn3c(=O)c4ccccc4c4ccccc43)cc1C(c1ccccc1Cl)=NC2 | 3.5 nM
